From ChEMBL document CHEMBL1141480 (Bioorg Med Chem Lett, 2008)

The chains behind the UniProt entries cited, without tags or fusion partners. Residues count along the entry.
UniProt P43235, 115-329 limits assumed: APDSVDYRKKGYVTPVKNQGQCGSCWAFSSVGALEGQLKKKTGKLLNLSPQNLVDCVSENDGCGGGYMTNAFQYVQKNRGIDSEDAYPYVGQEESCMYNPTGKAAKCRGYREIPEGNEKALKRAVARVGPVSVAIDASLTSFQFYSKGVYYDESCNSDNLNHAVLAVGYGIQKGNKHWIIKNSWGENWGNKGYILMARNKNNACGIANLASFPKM

Legend:
[1] = target: Cathepsin K (Homo sapiens, UniProt P43235); experiment: Inhibition of humanized rabbit cathepsin K
Procedure, shortened: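 Enzyme was humanized rabbit cathepsin K, with assay conditions per an earlier report. Read-out is IC50; standard deviations were typically within 35% of the IC50.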

[2] = target: T1, Cathepsin K (Oryctolagus cuniculus, UniProt P43236); experiment: Inhibition of rabbit cathepsin K
T1 sequence (P43236 whole entry): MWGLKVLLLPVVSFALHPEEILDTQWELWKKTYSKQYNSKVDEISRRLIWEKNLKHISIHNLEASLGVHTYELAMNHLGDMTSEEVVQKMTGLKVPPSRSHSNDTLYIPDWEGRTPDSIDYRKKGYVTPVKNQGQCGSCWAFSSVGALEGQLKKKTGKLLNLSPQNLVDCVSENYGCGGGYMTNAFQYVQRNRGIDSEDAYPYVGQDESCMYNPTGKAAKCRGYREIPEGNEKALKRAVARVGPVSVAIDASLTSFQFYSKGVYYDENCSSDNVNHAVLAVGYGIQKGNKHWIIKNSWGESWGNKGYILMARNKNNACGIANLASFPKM

IC50 [1]: 0.5 nM
IC50 [2]: 0.5 nM
Structure (SMILES): CC(C)C[C@H](NC(=O)c1cc2ccccc2o1)C(=O)N[C@H]1CC[C@@H](C)N(S(=O)(=O)c2ccccn2)CC1=O [RELACATIB]
